Consider 20 compounds from PubChem BioAssay AID720553 (National Center for Advancing Translational Sciences (NCATS), 2013).

This is a selection; strong and weak results do not stand in their true shares. Active and inactive are the calls of the source.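 The calls were made as follows: active = maximum activity change below -70%; inconclusive = maximum activity change from -70% to -50%; inactive = maximum activity change above -50%.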
% is scaled to controls: 0 for no effect and ±100 for the full control effect.

This assay has as its system Potassium voltage-gated channel subfamily H member 2, brain isoform KCNH2 3.1 (human). The assay can be described thus: qHTS for Inhibitors of KCHN2 3.1: Mutant qHTS. To be noted: U2OS KCNH2 3.1, thallium flux FluxOr; active compounds read low. The method, boiled down:
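Thallium flux read-out: FluxOr dye with Red40 quencher in HBSS/HEPES, 45 min at RT. Rate constants from kinetic reads were normalized to positive and negative DMSO controls. Cells: U2OS virally expressing the 3.1 isoform.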
For the compound `CC(C)(C)OC(=O)N1CCC(N(C(=O)c2ccccc2)c2ccc(Cl)cc2)CC1`, the activity change was inactive: 23.4%. Next, `CN(C)c1ccc(C(=O)NCC2(N3CCCCC3)CCCCC2)cc1`: inactive: 2.95%; `O=C(NCC1(N2CCCCC2)CCCCC1)c1ccco1`: inactive: -14.3%; `CCN1CCC(Nc2cccc(F)c2)CC1`: inactive: -0.122%. As for `Cc1ccccc1NC1(C#N)CCN(Cc2ccccc2)CC1`, the figure is inactive: -5.14%; as for `Fc1ccccc1NC1CCN(Cc2ccccc2)CC1`, inactive: -3.81%; as for `Cc1ccc(Nc2c([N+](=O)[O-])cc([N+](=O)[O-])cc2[N+](=O)[O-])cc1`, inactive: -0.304%. As for `Cc1ccc(C(=O)NCC2(N3CCCCC3)CCCCC2)o1`, the figure is inactive: 0.986%. Regarding `Cc1ccc(NC2(C#N)CCN(Cc3ccccc3)CC2)cc1`, the activity change is inactive: 5.71%.

Turning to `CC(=O)N(c1ccccc1)C1CCNCC1`, the activity change is inactive: 40.2%. Turning to `COc1cc(OC)cc(C(=O)NCC2(N3CCCCC3)CCCCC2)c1`, the activity change was inactive: 10.7%. Turning to `CN1CCC(Nc2ccc(Cl)cc2)CC1`, the activity change is inactive: -24.1%. As for `COc1cc(OC)cc(C(=O)NCC2(N3CCOCC3)CCCCC2)c1`, the figure is inactive: -12.4%. Next, `COc1cccc(C(=O)N(c2cc(C)cc(C)c2)C2CCN(C(=O)OC(C)(C)C)CC2)c1`: inactive: -6.16%; `CCC(CO)(C(=O)OC1CN2CCC1CC2)c1ccccc1` (stereo not given): inactive: 1.58%. Regarding `O=C(O)C1(Nc2ccccc2)CCN(Cc2ccccc2)CC1`, the activity change was inactive: 1.01%.

In the case of `CC(C)(C)OC(=O)N1CCC(Nc2ccccc2)CC1`, the activity change is inactive: -3.28%. As for `CCCOc1ccc(C(=O)NCC2(N(C)C)CCCCC2)cc1`, the figure is inactive: -10.1%; as for `CN1CCC(Nc2ccc(F)c(Cl)c2)CC1`, inactive: 5.99%.

On to `CCOc1ncccc1C(=O)NCC1(N2CCOCC2)CCCCC1`, for which the activity change is inactive: 9.92%.
